From BindingDB's records for PubMed 7520908 (Janssen Research Foundation, 1994)
Counter-ions that a name gives are not always drawn.

Sequences of proteins named here, by UniProt entry; tags and fusion partners are left off.
UniProt P28222, whole entry: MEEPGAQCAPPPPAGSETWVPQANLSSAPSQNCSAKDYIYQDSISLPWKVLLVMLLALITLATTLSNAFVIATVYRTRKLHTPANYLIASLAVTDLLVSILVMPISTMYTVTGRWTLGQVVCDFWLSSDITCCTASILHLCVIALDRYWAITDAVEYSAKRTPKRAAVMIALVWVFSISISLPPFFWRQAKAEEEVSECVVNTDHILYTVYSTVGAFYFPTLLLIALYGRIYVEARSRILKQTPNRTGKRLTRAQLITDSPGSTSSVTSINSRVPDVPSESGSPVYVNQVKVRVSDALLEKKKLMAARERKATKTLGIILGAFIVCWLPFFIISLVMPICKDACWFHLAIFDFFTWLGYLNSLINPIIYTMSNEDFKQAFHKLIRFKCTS

Target: 5-hydroxytryptamine receptor 1B (Homo sapiens, UniProt P28222)

O=C(CCCN1CCC(O)(c2ccc(Cl)cc2)CC1)c1ccc(F)cc1 [4-[4-(4-Chloro-phenyl)-4-hydroxy-piperidin-1-yl]-1-(4-fluoro-phenyl)-butan-1-one;propionate(HCl)]
Ki: 283 nM
